Target: human RORgT (Homo sapiens, UniProt P51449)
Assay: RORgT Gal4 Luciferase Reporter Gene Assay
Settings: read-out: RORgT-GAL4 EC50; engineered Jurkat cells overexpressing RORgT (LBD or full length) fused with Gal4 Luc reporter; 18 hours at 37° C.; luminescence

The chains behind the UniProt entries cited, without tags or fusion partners. Residues count along the entry.
UniProt P51449, 267-516 limits assumed: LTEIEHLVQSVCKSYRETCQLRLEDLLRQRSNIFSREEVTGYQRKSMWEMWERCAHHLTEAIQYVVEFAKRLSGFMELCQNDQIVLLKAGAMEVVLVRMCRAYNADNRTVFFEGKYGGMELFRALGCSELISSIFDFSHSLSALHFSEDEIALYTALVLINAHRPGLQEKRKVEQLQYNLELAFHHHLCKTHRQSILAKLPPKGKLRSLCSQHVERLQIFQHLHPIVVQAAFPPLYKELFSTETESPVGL

Work on `CC(=O)N[C@H]1CC[C@H](CN2CC[C@@]3(S(=O)(=O)c4ccc(F)cc4)c4ccc(OCc5c(F)cccc5C(F)(F)F)cc4CC[C@@H]23)CC1` yielded an EC50 of 161 nM.
